Data published in paper PMC6222444, “Structural Basis for the Interaction between p53 Transactivation Domain and the Mediator Subunit MED25” (Molecules : A Journal of Synthetic Chemistry and Natural …, 2018).

Legend:
MED25 ACID [1] = molecular target: T1, MED25 ACID (Homo sapiens, UniProt Q71SY5); test: Isothermal titration calorimetry (ITC) binding to MED25 ACID; details: Auto-iTC200, 25 mM sodium phosphate, 100 mM NaCl, pH 7.0, 25 °C, full-length p53TAD: 600 µM MED25 ACID titrated into 20 µM p53TAD, peptides: 600 µM peptide titrated into 20 µM MED25 ACID, eighteen injections of 10 µL, one-site binding
T1 construct: Expression of the His6-fused MED25 ACID (residues 394–543) was induced at 18 °C; His6 (C); made in house; host or cells: Escherichia coli BL21(DE3)RIL
T1 sequence (Q71SY5 394-543): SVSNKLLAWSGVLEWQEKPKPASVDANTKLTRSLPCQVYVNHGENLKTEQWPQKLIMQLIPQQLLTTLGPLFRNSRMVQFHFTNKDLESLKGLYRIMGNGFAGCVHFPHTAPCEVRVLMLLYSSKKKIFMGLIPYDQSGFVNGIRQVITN

MED25 ACID [2] = molecular target: T1, MED25 ACID; test: NMR titration of 15N-labeled MED25 ACID with p53TAD and p53TAD1/p53TAD2 peptides (chemical shift perturbation); assay type: binding; details: molar ratio 1:1
Excerpt: The human p53TAD (residues 1–73) and human MED25 ACID (residues 394–543) were cloned into the pGEX-4T vector (GE-healthcare, Chicago, IL, USA) containing an N-terminal glutathione-S-transferase (GST) tag and pET-21b vector (Novagen, Madison, WI, USA) containing a C-terminal His6 tag, respectively. The p53TAD1 (residues 15–29) and the wild-type and mutant p53TAD2 (residues 39–57) peptides were chemically synthesized and purified by Peptron Inc. (Daejeon, Korea).
The expression vectors were transformed into the Escherichia coli BL21(DE3)RIL cells. Cells were grown to an optical density at 600 nm (OD600) of ~0.6 at 37 °C, and expression of the GST-fused p53TAD (residues 1–73) was induced at 18 °C with 0.5 mM isopropyl-β-D-thiogalactopyranoside (IPTG) for 16 h. Harvested cells were suspended in phosphate-buffer saline (PBS) (10 mM Na2HPO4, 140 mM NaCl, and 1.8 mM KH2PO4, pH 7.5) and lysed by sonication. After cell debris was removed by centrifugation, the supernatant was loaded onto a GST column (GE healthcare). After washing with PBS, the protein was eluted by elution buffer (50 mM Tris-HCl, pH 8.0, and 15 mM glutathione) prepared freshly. After cleaved with thrombin and dialyzed against Q-buffer (20 mM sodium phosphate, pH 6.4, 50 mM NaCl, and 2 mM dithiothreitol (DTT)), the protein was loaded onto a HiTrap-Q HP column (GE-Healthcare) and eluted by a 50–1000 mM linear gradient of NaCl. […] The purity and homogeneity of the proteins were assessed using sodium dodecyl sulfate-polyacrylamide gel electrophoresis (SDS-PAGE). […]
All the NMR data were acquired using Bruker Avance II 800 and 900 spectrometers (Bruker, Billerica, MA, USA) equipped with a cryogenic probe at the Korea Basic Science Institute. […] The weighted ΔCS values for backbone ^1H and ^15N resonances were calculated by this equation: ΔCS = (Δ^1H^2 + (0.2 × Δ^15N)^2)^0.5. All NMR data were processed and analyzed using nmrPipe/nmrDraw and SPARKY 3 software (version 3, University of California, San Francisco, CA, USA, http://www.cgl.ucsf.edu/home/sparky/).

- equilibrium dissociation constant (Kd) with MED25 ACID (MED25 ACID [1]): could not be determined by ITC
- rank order of degree of CSPs on MED25 ACID (MED25 ACID [2]; weighted ΔCS, pH 6.5, 25 °C): full-length p53TAD > p53TAD2 > p53TAD1
Substance: p53TAD1 peptide: p53TAD1 (residues 15–29) chemically synthesized peptide
- effect on 15N-labeled MED25 ACID crosspeaks (line broadening, chemical shift changes) (MED25 ACID [2]; 2D 1H-15N HSQC, 20 mM sodium phosphate, pH 6.5, 100 mM NaCl, 1 mM EDTA, 4 mM DTT, 10% D2O, 25 °C): caused the crosspeaks of MED25 ACID to significantly move
- binding site/surface on MED25 ACID (MED25 ACID [2]; CSP mapping, ΔCS > 0.05 ppm and disappeared residues, pH 6.5, 25 °C): located on a hydrophobic groove in one face of MED25 ACID structure composed of β-strands (β4 and β7) and α1-helix
